Earlier results in patent publication US20190321331A1, “COMPRESSED TABLETS FOR GIVING BIRTH TO FEMALES” (priority 2016, published 2019).

Settings: one liter each, administered intravenously

Substance: Albumin: albumin solution; human plasma protein
- distribution of the solution among the three regions (intracellular, intercellular, blood vessels): not distributed and precipitated inside the blood vessels
